Earlier results as cited in patent publication US20140329903A1, “TREATMENT OF NEURODEGENERATIVE DISEASES” (ACADIA PHARMACEUTICALS INC., priority 2011, published 2014).
Like-named read-outs stand apart in the source and are kept apart here.

Tested on: NMU (N-nitroso-N-methylurea) induced mammary tumor carcinoma model
Conditions: cited from earlier work; for Effective in rat cancer model?: NDA #21055

SMILES: C=C(c1ccc(C(=O)O)cc1)c1cc2c(cc1C)C(C)(C)CCC2(C)C [Bexarotene, bexarotene]
- Effective anti-cancer dose (rats) (oral, Targretin NDA #21055): 60 mg/kg/day
- Effective in rat cancer model? (p.o. 10 mg/kg/day): No
- Effective in rat cancer model? (p.o. 30 mg/kg/day, Yes/no indicates partial efficacy): Yes/No
- Effective in rat cancer model? (p.o. 100 mg/kg/day): Yes
